# Measurements taken from the Kinase Knowledgebase extract (Sharma et al. 2016).
# Chains of the proteins cited; added tags and fusions are not shown.
# UniProt P42336, whole entry, looked up: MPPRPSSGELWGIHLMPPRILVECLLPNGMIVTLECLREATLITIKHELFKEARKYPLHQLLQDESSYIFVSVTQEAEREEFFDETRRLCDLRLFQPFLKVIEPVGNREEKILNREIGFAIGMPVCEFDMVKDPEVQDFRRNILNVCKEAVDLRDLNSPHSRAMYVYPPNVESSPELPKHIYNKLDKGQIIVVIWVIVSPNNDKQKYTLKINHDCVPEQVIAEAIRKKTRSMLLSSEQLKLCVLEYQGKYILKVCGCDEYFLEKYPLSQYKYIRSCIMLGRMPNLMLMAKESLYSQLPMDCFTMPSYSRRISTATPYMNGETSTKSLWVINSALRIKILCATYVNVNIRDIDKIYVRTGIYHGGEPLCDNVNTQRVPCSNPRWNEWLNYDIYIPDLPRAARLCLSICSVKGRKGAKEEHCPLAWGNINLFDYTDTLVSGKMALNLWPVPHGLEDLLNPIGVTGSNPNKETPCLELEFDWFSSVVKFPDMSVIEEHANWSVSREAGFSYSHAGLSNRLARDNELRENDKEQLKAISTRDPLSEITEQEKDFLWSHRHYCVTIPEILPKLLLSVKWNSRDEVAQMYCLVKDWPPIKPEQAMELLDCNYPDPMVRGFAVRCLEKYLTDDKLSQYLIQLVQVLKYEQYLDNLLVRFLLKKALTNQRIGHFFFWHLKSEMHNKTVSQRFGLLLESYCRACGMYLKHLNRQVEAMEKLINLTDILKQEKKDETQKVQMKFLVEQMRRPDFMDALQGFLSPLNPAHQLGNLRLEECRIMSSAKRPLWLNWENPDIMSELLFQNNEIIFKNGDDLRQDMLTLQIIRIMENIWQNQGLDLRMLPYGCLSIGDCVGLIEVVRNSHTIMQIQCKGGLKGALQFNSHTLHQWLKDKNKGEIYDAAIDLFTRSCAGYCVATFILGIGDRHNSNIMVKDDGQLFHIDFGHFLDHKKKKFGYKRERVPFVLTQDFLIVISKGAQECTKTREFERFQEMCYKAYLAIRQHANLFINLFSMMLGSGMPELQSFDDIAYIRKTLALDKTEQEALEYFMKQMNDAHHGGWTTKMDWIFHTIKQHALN
# Biological target: PIK3CA (human) (UniProt P42336)
# Assay: Cell-Based Assay
# Conditions: bt20
row,IC50 [nM],SMILES
1,17.4,COc1ccc(-c2ccc3ncc4c(c3n2)n(C2CCN(C(=O)CO)CC2)c(=O)n4C)cc1
2,1000,COc1ncc(-c2ccc3ncc4c(c3n2)n([C@H]2CC[C@H](O)CC2)c(=O)n4C)cn1
3,19.4,CN1CCC(n2c(=O)n(C)c3cnc4ccc(-c5ccc(N(C)C)nc5)nc4c32)CC1
4,79.3,CNC(=O)N1CCC(n2c(=O)n(C)c3cnc4ccc(-c5cnn(C)c5)nc4c32)CC1
